Columns and labels:
[1] = target: recombinant human GREM1 (hGREM1-His; C-terminal 10His tagged, R&D, #5190-GR) (human) (UniProt O60565); experiment: cell-based or functional assay
[2] = target: recombinant human GREM1 (hGREM1-His; C-terminal 10His tagged, R&D, #5190-GR) (human) (UniProt O60565); experiment: BLI Octet, captured mAb, 100 nM GREM1 without vs with 5 uM heparin
[3] = target: recombinant human GREM1 (hGREM1-His; C-terminal 10His tagged, R&D, #5190-GR) (human) (UniProt O60565); experiment: BLI Octet, captured mAb, 100 nM GREM1
[4] = target: recombinant human GREM1 (hGREM1-His; C-terminal 10His tagged, R&D, #5190-GR) (human) (UniProt O60565); experiment: BLI Octet, captured mAb, 100 nM GREM1 + 5 uM heparin

The chains behind the UniProt entries cited, without tags or fusion partners. A line that says so, or that is headed by a name, gives the form on record, which may keep a tag or linker.
UniProt O60565, other isoform, or with tags, fused parts or gaps limits assumed, form in doubt: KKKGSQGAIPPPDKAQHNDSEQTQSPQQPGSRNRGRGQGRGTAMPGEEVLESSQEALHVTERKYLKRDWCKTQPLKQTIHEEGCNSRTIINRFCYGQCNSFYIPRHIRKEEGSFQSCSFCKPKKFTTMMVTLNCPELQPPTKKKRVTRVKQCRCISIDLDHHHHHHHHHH

B1: H4H2897N (antibody, human IgG4, V domains shown)
VH: QVQLVESGGGVVQPGRSLRLSCAASGFTFTNYGMHWVRQAPGKGLEWVAAISYDGTNKYYADSVKGRFTISRDDSKNTLCLQMNSLRAEDTAVYYCAKEGTGEGFSFDYWGQGTLVTVSS
VL: DIVMTQSPLSLPVTPGEPASISCRSSQSLLHFNGYNYLDWYLQKPGQSPQLLIYLGSNRASGVPDRFSGSGSGTDFTLKVSRVEAEDVGVYYCMQALQTPFTFGPGTKVDIK
In the case of B1, the IC50 [M], W-20-17/BRE-luc luciferase bioassay, 100 pM hBMP4 and 10 nM hGREM1-His [1] is reported as 4.5e-10 M, the hGREM1-His Inhibition IC50, M; W-20-17 cell differentiation assay (alkaline phosphatase) [1] is reported as 18 nM and the Reduction in Signal from Heparin at 30 sec [2] is reported as 0.19 nm. The Reduction in Signal from Heparin at 300 sec [2] was 0.42 nm, the Binding Signal with 30 sec Association (nm) [3] was 0.2 nm and the Binding Signal with 300 sec Association (nm) [3] was 0.68 nm. For the same binder, the Binding Signal with 30 sec Association (nm) [4] was 0.01 nm and the Binding Signal with 300 sec Association (nm) [4] was 0.26 nm.
